Source: US8951963B2, “Active cores of peptide triazole HIV-1 entry inhibitors” (priority 2009, dated 2015)

Legend:
[1] = biological target: T1, HIV-1YU-2 gp120 binding to mAb 17b (Human immunodeficiency virus type 1 group M subtype B, UniProt P35961); experiment: biochemical
T1 construct: made in house; host or cells: Drosophila S2 cells (gp120)

[2] = biological target: T2, HIV-1 YU-2 gp120 binding to F105 (Human immunodeficiency virus type 1 group M subtype B, UniProt P35961); experiment: ELISA: inhibition of mAb F105 binding to immobilized YU-2 gp120
T2 construct: made in house; host or cells: Drosophila S2 cells (gp120)
Description: (§1) FIGS. 13A-13C depict a series of chemical structures and a graph. […] FIG. 13C is a bar graph of inhibition by UM 17 of the binding of CD4i antibodies to immobilized YU-2 gp120. The (%) of binding of antibodies mAb F105 and IgG b12 to immobilized YU-2 gp120 is plotted against the concentration of the inhibitor peptide.

[3] = biological target: T3, HIV-1 YU-2 gp120 binding to b12 (Human immunodeficiency virus type 1 group M subtype B, UniProt P35961); experiment: ELISA: inhibition of IgG b12 binding to immobilized YU-2 gp120
T3 construct: made in house; host or cells: Drosophila S2 cells (gp120)
Description: as §1

Molecule `CC[C@H](C)[C@H](NC(=O)[C@@H](N)CCCNC(=N)N)C(=O)N[C@@H](CC(N)=O)C(=O)N[C@@H](CC(N)=O)C(=O)N[C@H](C(=O)N1C[C@@H](n2cc([C]34[CH]5[CH]6[CH]7[CH]3[Fe]6754389%10[CH]4[CH]3[CH]8[CH]9[CH]4%10)nn2)C[C@H]1C(=O)N[C@@H](Cc1c[nH]c2ccccc12)C(N)=O)[C@@H](C)CC` (stereo partly drawn) [UM12] has an IC50 [1] of 0.25 µM.
Work on `CC[C@H](C)[C@H](NC(=O)[C@H](CC(N)=O)NC(=O)[C@@H](N)CC(N)=O)C(=O)N1C[C@@H](n2cc([C]34[CH]5[CH]6[CH]7[CH]3[Fe]6754389%10[CH]4[CH]3[CH]8[CH]9[CH]4%10)nn2)C[C@H]1C(=O)N[C@@H](Cc1c[nH]c2ccccc12)C(N)=O` (stereo partly drawn) [UM17] yielded an IC50 [2] of 0.6 ± 0.05 µM and an IC50 [3] of 4 ± 0.17 µM.
